{"sequences": {"note": "The chains behind the UniProt entries cited, without tags or fusion partners. Where a name states a change or a piece, a line headed by the entry shows the natural chain unless it says otherwise.", "UniProt P22086": "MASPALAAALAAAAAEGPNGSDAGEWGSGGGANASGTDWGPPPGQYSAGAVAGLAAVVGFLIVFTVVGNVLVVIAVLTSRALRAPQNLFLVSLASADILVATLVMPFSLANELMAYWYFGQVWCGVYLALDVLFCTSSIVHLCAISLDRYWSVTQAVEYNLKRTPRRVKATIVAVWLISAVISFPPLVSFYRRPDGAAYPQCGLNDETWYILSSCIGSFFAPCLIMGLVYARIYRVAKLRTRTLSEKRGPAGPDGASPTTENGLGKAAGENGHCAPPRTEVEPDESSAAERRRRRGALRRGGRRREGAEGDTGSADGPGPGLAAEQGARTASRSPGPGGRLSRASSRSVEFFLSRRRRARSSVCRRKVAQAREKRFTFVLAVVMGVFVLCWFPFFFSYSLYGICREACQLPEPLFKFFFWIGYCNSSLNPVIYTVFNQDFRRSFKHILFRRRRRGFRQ", "UniProt P19328": "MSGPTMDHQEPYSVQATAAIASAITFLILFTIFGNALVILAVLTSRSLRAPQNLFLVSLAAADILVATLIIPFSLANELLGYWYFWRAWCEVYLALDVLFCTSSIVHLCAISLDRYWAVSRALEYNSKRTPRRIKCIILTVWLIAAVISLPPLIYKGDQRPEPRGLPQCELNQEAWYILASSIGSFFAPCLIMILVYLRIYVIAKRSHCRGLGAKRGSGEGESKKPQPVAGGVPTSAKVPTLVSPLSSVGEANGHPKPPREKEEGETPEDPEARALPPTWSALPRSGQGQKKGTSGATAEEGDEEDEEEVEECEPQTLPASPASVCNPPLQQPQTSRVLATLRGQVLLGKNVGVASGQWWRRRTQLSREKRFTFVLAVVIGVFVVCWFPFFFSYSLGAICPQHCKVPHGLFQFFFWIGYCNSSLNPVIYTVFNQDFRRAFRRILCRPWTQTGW", "UniProt P22909": "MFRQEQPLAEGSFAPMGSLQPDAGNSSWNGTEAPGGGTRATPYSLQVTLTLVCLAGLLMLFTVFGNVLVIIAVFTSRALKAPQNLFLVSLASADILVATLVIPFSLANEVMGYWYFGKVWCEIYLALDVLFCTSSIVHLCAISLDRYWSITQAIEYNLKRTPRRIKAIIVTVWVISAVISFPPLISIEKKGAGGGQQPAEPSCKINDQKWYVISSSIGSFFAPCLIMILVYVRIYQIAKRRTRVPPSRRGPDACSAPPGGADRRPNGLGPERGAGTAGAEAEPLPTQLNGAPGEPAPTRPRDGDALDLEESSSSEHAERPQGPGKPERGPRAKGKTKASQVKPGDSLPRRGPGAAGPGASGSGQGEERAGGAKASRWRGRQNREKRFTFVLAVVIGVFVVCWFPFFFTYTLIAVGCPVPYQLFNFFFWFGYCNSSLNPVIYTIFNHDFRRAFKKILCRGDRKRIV"}, "source": "ChEMBL document CHEMBL1122788", "about": "“Quantitative relationships between alpha-adrenergic activity and binding affinity of alpha-adrenoceptor agonists and antagonists” (J Med Chem, 1984)", "molecular_target": "Adrenergic receptor alpha-2 (Rattus norvegicus, UniProt P22086+P19328+P22909)", "assay": "Binding affinity against Alpha-2 adrenergic receptor is the ability to inhibit the specific [3H]clonidine binding (0.4 nM) to rat isolated brain membranes by 50% was reported; 3.6*10e-9", "format": "tissue-based, Membrane"}
{"compound": "Brc1c(NC2=NCCN2)ccc2nccnc12", "note": "[BRIMONIDINE]", "values": [{"measurement": "IC50", "value": 3.6, "unit": "nM"}]}
